Ab-95 light chain CDR variants: yeast mating affinities

The target is the same throughout: PDVDLGDISGINAS, from the HR2 region of SARS-CoV-2 spike.

Parent: Ab-95, a human scFv built as VH, three GGGGS repeats, VL. Only the CDRs of the light chain vary.
VH: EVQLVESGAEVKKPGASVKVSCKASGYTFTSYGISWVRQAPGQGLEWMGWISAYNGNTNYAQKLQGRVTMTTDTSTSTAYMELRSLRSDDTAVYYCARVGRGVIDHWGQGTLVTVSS
VL: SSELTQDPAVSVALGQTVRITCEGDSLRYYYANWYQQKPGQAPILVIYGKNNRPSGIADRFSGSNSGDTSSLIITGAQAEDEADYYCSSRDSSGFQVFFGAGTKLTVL

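The parent was found by panning a naive human phage display library on the peptide. The library (AAYL52) carries one to three amino acid substitutions per variant, with no insertions or deletions. Affinity was read by AlphaSeq, a pooled yeast mating assay with surface-displayed partners. Binding brings cells together so that they mate, and sequencing counts the barcode pairs among the diploids. Each replicate has its own calibration line, from reference interactions of the BCL2 family. The assay was run in three technical replicates.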

Positions count from residue 1 of the parent VL; G49V puts V in place of G. Scale: log10 of Kd in nM, estimated from mating counts; low values are strong binders. "ND" means that the variant was in the library but no mating with the target was seen in that replicate; the authors take this as a sign of poor binding, and no number exists.

| changes | log10 Kd, replicates | control signals |
|---|---|---|
| G49V/S55K/R90D | 3.23 / ND / ND | 1 of 9 (4.68) |
| S55Q/S89E/Q96M | 2.29 / 2.32 / 2.09 | 2 of 9 (4.54) |
| G49I/R53Q/S92T | 5.45 / 4.42 / ND | 2 of 9 (3.81) |
| D25H/Y30A/N33A | 1.89 / 2.00 / 1.70 | 2 of 9 (4.31) |
| N33F/G49P/S92R | ND / ND / 3.13 | 6 of 9 (3.72) |
| N33V/S55D | 2.56 / 2.32 / 2.78 | 5 of 9 (4.35) |
| Y29P/N52F/F95K | 2.72 / 3.18 / 3.16 | 0 of 9 |
| S26G/L27T/Y31P | 2.38 / 2.32 / 2.24 | 3 of 9 (4.42) |
| L27W/Y31N/Q96H | 3.61 / 2.57 / 2.52 | 3 of 9 (3.93) |
| S93T | 2.11 / 1.97 / 1.86 | 1 of 9 (3.04) |
| G24W/L27P/S55I | 4.18 / 3.82 / ND | 4 of 9 (3.88) |
| S26T/P54G/D91L | ND / ND / ND | 1 of 9 (3.88) |
| S55K/F95N | ND / 2.35 / ND | 1 of 9 (4.48) |
| G24K/R53I/S88F | ND / ND / ND | 1 of 9 (3.05) |
| S88K/D91H/G94R | 5.20 / 2.78 / 3.13 | 1 of 9 (3.86) |
| Y30P/K50F/N52D | 3.08 / 3.28 / 2.88 | 1 of 9 (4.30) |
| E23L | 2.94 / 2.14 / 2.76 | 0 of 9 |
| G24E/Y31H/V97D | ND / 5.49 / ND | 2 of 9 (4.25) |
| N33R/K50W | ND / ND / 4.06 | 1 of 9 (3.97) |
| S89W/S92V/S93N | 2.47 / 2.31 / 2.47 | 3 of 9 (4.29) |
| S88Y/R90I/V97H | 3.06 / 3.96 / 2.62 | 1 of 9 (4.26) |
| R53L/S92G | 3.11 / 2.41 / 2.14 | 1 of 9 (4.19) |
| L27T/A32S/N52T | 3.33 / 3.46 / 2.80 | 1 of 9 (3.87) |
| V97N | 3.35 / 3.03 / 2.97 | 4 of 9 (3.96) |
| N51K/S88Q/S93I | ND / ND / ND | 0 of 9 |
| S26I/P54Q/F98L | ND / ND / ND | 1 of 9 (3.67) |
| D25I/Y29P/G94L | ND / 3.05 / 4.13 | 2 of 9 (4.09) |
| K50L/R90D/G94H | ND / ND / ND | 2 of 9 (2.79) |
| D25C/S88I/G94I | ND / ND / ND | 2 of 9 (3.62) |
| L27I/N52Q/G94D | 3.97 / ND / ND | 3 of 9 (4.50) |
| K50Q/S88H | 3.84 / 4.27 / 4.46 | 2 of 9 (3.97) |
| Y29F/G49H/P54F | ND / ND / 4.35 | 4 of 9 (4.28) |
| Y29D/N52S/S88V | 2.74 / 3.06 / 2.35 | 2 of 9 (4.00) |
| Y31H/S88A/G94Y | 2.21 / 2.33 / 1.92 | 1 of 9 (2.64) |
| A32R/Q96G/V97D | 4.39 / 5.84 / ND | 3 of 9 (4.03) |
| Y30G/N52T/S89M | 0.99 / 0.80 / 0.42 | 1 of 9 (5.43) |
| G24F/G49C/R90A | ND / ND / ND | 2 of 9 (3.87) |
| R28S/F95V/V97F | 2.75 / 5.70 / 2.60 | 4 of 9 (3.78) |
| E23N/F95Q/Q96V | 2.56 / 2.87 / 2.39 | 4 of 9 (4.30) |
| R28F/N33A | 4.14 / ND / ND | 2 of 9 (3.46) |
| K50G/R90E/V97D | 2.23 / 2.30 / 2.06 | 4 of 9 (4.87) |

Three control strains display no target. For library AAYL52, 28% of the pairings with them gave a signal, with a median of 3.91 and one signal in twenty below 2.90, so weak values seen in few replicates may be background. Also given: how often the same scFv was detected with the empty control strains, with their mean in brackets. For reference, the parent read 2.31 as the reference entry and 2.25 as a member of this library.

Data: MIT Lincoln Laboratory AlphaSeq set, Engelhart et al. 2022, doi:10.1038/s41597-022-01779-4, as distributed in FLAb.